{
  "source": "paper PMC7660650",
  "about": "“Chemical Starting Matter for HNF4α Ligand Discovery and Chemogenomics” (International Journal of Molecular Sciences, 2020)",
  "key": {"Gal4–VP16": {"tested_on": "Gal4–VP16", "assay": "Gal4-VP16 control experiment (reporter gene assay, HEK293T cells)", "assay_type": "cell-based", "settings": "50 µM; mean ± SD"}, "[1]": {"molecular_target": "T1, Gal4-HNF4α (human HNF4α LBD) (Homo sapiens, UniProt P41235)", "T1 sequence (P41235 142-377)": "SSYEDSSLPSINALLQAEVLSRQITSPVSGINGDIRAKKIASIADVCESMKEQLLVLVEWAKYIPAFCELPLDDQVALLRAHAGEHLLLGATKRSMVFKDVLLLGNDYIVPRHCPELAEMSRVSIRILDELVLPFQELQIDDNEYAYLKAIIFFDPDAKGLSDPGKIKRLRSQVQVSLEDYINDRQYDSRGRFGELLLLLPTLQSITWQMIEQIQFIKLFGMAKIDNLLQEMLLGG", "assay": "Hybrid Gal4-HNF4α reporter gene assay in transiently transfected HEK293T cells"}, "[2]": {"molecular_target": "T2, recombinant HNF4α LBD protein (Homo sapiens, UniProt P41235)", "T2 construct": "The LDB domain of HNF4α (aa. 148–377) subcloned into pNIC28-Bsa4; His6 (N); made in house; host or cells: E. coli Rosetta", "T2 sequence (P41235 148-377)": "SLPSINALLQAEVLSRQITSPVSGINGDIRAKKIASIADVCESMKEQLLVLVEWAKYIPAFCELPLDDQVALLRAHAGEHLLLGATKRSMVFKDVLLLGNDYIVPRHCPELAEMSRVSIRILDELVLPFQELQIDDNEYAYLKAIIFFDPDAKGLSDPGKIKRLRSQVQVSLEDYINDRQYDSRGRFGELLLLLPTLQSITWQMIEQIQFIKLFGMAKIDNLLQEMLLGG", "assay": "Isothermal titration calorimetry (ITC)", "assay_type": "binding", "settings": "25 °C, protein 10–20 µM titrated with ligand 50–200 µM"}},
  "note": "“Also recorded” adds a separate entry of the source.",
  "data": [
    {"smiles": "O=C(Nc1ccccc1Cl)c1ccccc1O", "note": "[compound 4, Oc1ccccc1C(=O)Nc1ccccc1Cl]", "values": [
      {"measurement": "VP16 Control (fold activation of reporter activity)", "setting": "Gal4–VP16", "value": "0.5 ± 0.2 (50 µM) fold activation"},
      {"measurement": "EC50", "setting": "[1]", "value": 15, "unit": "µM"},
      {"measurement": "Follow-up HNF4α (fold activation of reporter activity)", "setting": "[1]", "value": "4 ± 2 (50 µM) fold activation"},
      {"measurement": "HNF4α Ligand Type", "setting": "[1]", "value": "Agonist"},
      {"measurement": "HNF4α vs. VP16 (p, t-test)", "setting": "[1]", "value": "p = 0.0014 (**)"},
      {"measurement": "Primary Screen (Fold Act., 50 µM)", "setting": "[1]", "value": 5.18, "unit": "fold activation"},
      {"measurement": "HNF4α LBD Binding (Kd)", "setting": "[2]", "value": "very weak HNF4α binding; also recorded: no/weak binding"}
    ]}
  ]
}
